Reference: patent publication US20240400579A1, “SPIROCYCLIC MODULATORS OF CHOLESTEROL BIOSYNTHESIS AND THEIR USE FOR PROMOTING REMYELINATION” (GENENTECH, INC., priority 2021, published 2024)

How the values were obtained:
[1] = test system: zymostenol accumulation in EpiSC-derived OPCs (EBP); assay: GC/MS-based sterol profiling, zymostenol accumulation; conditions: read-out: mZymo GCMS EC50, 24 hours, 8 doses from 0.15 nM to 333 nM, listed as 124A*
[2] = test system: EpiSC-derived OPCs; assay: In vitro phenotypic screening of OPCs, MBP high-content imaging; conditions: read-out: mOPC EC50; percentage of MBP+ oligodendrocytes; 3 days; 0.5 nM to 1000 nM; listed as 124A*

EC50 [1]: 6.2 nM | EC50 [2]: 32 nM
Structure (SMILES): CC(Cc1ccc(C2CCCCO2)c(Cl)c1)CN1CCC2(C1)CS(=O)(=O)C2 (single isomer, unassigned)
